Assay results from PubChem BioAssay (NCATS).
“And” between values parts separate entries of the source, which are not always exact repeats. Equal values may be shown once. The entries are a selection whose mix differs from that of the whole data set. Results filed as inconclusive are left out. The source made the active and inactive calls. The call rests on the fitted dose curve; in most records, active means well fitted curve in the direction sought with a large enough effect; inconclusive means small, poorly fitted or top-dose-only effect, or another doubt; inactive means no such curve, though single readings can be large; an effect the other way counts as inactive or inconclusive.

Legend:
[1] = qHTS of pediatric cancer cell lines to identify multiple opportunities for drug repurposing: Primary screen for SK-N-SH cells (AID 1347098); conditions: SK-N-SH viability, CellTiter-Glo luminescence, 48 h; at 57 µM (top of the series) unless noted;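 further: DMSO served as neutral control and bortezomib at 2.3 µM as positive control; on the % scale 0 is the no-effect control and ±100 the full control effect; nearly all actives have a fitted effect of over 65% in size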
Procedure, shortened: (§1)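 Cells (500-1,000/well) rested 5 h, then received compounds for 48 h; metabolically active cells were measured by CellTiter-Glo luminescence. Final concentrations spanned up to 46 µM (MIPE, 11-point) or 0.59 nM-46 µM (NPC, 8-point) in primary screens, 11-point in follow-ups.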

[2] = qHTS of pediatric cancer cell lines to identify multiple opportunities for drug repurposing: Primary screen for NB1643 cells (AID 1347099); conditions: NB1643 neuroblastoma viability, CellTiter-Glo luminescence, 48 h; at 92.7 µM (top of the series);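 further: plate controls were DMSO neutral control for no effect and bortezomib positive control for full effect; nearly all actives have a fitted effect of over 50% in size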
[3] = qHTS of pediatric cancer cell lines to identify multiple opportunities for drug repurposing: Primary screen for LAN-5 cells (AID 1347100); conditions: LAN-5 neuroblastoma viability, CellTiter-Glo luminescence, 48 h; at 92.7 µM (top of the series);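 further: plate controls were DMSO neutral control for no effect and bortezomib positive control for full effect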
Procedure, shortened: (§2)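 Viability after 48 h compound treatment at 37C, 500-1,000 cells/well, read as ATP luminescence with CellTiter-Glo. Primary screens used 11-point (MIPE, 0.78 nM-46 µM) or 8-point (NPC, 0.59 nM-46 µM) final concentrations; follow-up screens used 11-point dilutions.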

[4] = qHTS of pediatric cancer cell lines to identify multiple opportunities for drug repurposing: Primary screen for BT-12 cells (AID 1347101); conditions: BT-12 viability, CellTiter-Glo luminescence, 48 h; at 57.3 µM (top of the series) unless noted;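 further: plate controls were DMSO for no effect and bortezomib positive control for full effect; nearly all actives have a fitted effect of over 25% in size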
Procedure, shortened: as §1

[5] = qHTS of pediatric cancer cell lines to identify multiple opportunities for drug repurposing: Primary screen for Rh18 cells (AID 1347102); conditions: Rh18 rhabdomyosarcoma viability, CellTiter-Glo luminescence, 48 h; at 92.7 µM (top of the series) unless noted; further: on the % scale 0 is the no-effect control and ±100 the full control effect; nearly all actives have a fitted effect of over 65% in size
Procedure, shortened: as §2

[6] = qHTS of pediatric cancer cell lines to identify multiple opportunities for drug repurposing: Primary screen for RD cells (AID 1347104); conditions: RD rhabdomyosarcoma viability, CellTiter-Glo luminescence, 48 h; at 92.7 µM (top of the series);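 further: plate controls were DMSO for no effect and bortezomib for full effect; nearly all actives have a fitted effect of over 55% in size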
Procedure, shortened: (§3)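 Viability was measured as metabolically active cells after 48 hours of treatment, read by CellTiter-Glo luminescence. Compounds were tested at multiple final concentrations, giving concentration-response curves.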

[7] = qHTS of pediatric cancer cell lines to identify multiple opportunities for drug repurposing: Primary screen for MG 63 (6-TG R) cells (AID 1347105); conditions: MG 63 (6-TG R) viability, CellTiter-Glo, 48 h; at 46 µM (top of the series) unless noted; further: on the % scale 0 is the no-effect control and ±100 the full control effect; nearly all actives have a fitted effect of over 50% in size
Procedure, shortened: as §3

[8] = qHTS of pediatric cancer cell lines to identify multiple opportunities for drug repurposing: Primary screen for control Hh wild type fibroblast cells (AID 1347106); conditions: Hh wild-type fibroblast viability, CellTiter-Glo luminescence, 48 h; at 92.7 µM (top of the series) unless noted;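 further: on the % scale 0 is the no-effect control and ±100 the full control effect; a drop in luminescence marks cytotoxicity and a rise apparent proliferation; nearly all actives have a fitted effect of over 55% in size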
Procedure, shortened: as §2

[9] = qHTS of pediatric cancer cell lines to identify multiple opportunities for drug repurposing: Primary screen for Rh30 cells (AID 1347107); conditions: Rh30 rhabdomyosarcoma viability, CellTiter-Glo luminescence, 48 h; at 92.7 µM (top of the series) unless noted; further: on the % scale 0 is the no-effect control and ±100 the full control effect; nearly all actives have a fitted effect of over 75% in size
Procedure, shortened: as §2

[10] = qHTS of pediatric cancer cell lines to identify multiple opportunities for drug repurposing: Primary screen for OHS-50 cells (AID 1347103); conditions: OHS-50 osteosarcoma viability, CellTiter-Glo luminescence, 48 h; further: potency means the concentration at half of the fitted maximal effect; nearly all actives have a fitted effect of over 40% in size
Procedure, shortened: as §1

CCC(=O)N(c1ccccc1)C1(COC)CCN(CCn2nnn(CC)c2=O)CC1
inactive: activity change, negative = cytotoxic [1] -9.61% [at 115 µM] | activity change, negative = cytotoxic [2] 0% | activity change, negative = cytotoxic [3] -25.7% | activity change, negative = cytotoxic [4] -1.18% [at 116 µM] | activity change, negative = cytotoxic [5] 2.13% | activity change, negative = cytotoxic [6] -8.1% | activity change, negative = cytotoxic [7] -39.1% [at 92.7 µM] | activity change, negative = cytotoxic [8] 13.7% | activity change, negative = cytotoxic [9] -4.5%

CCC(=O)N(c1ccccc1)C1(COC)CCN(CCc2cccs2)CC1
active: Potency [10] 44.7 µM
inactive: activity change, negative = cytotoxic [2] -13.3% | activity change, negative = cytotoxic [3] -15.5% | activity change, negative = cytotoxic [5] -15.6% | activity change, negative = cytotoxic [8] 18.2% | activity change, negative = cytotoxic [9] 3.37%

CN(CCCl)CCCl
inactive: activity change, negative = cytotoxic [1] 3.31% | activity change, negative = cytotoxic [4] -15.3% and 12.5% | activity change, negative = cytotoxic [5] 1.11% [at 46 µM] and 6.05% [at 46 µM] | activity change, negative = cytotoxic [7] -28% and 8.74% | activity change, negative = cytotoxic [8] 9.42% [at 46 µM] and 11.4% [at 46 µM] | activity change, negative = cytotoxic [9] -3.52% [at 46 µM] and 10.2% [at 46 µM]
